Measurements reported in ChEMBL document CHEMBL4376866, “Discovery and Structure-Based Optimization of Potent and Selective WD Repeat Domain 5 (WDR5) Inhibitors Containing a Dihydroisoquinolinone Bicyclic Core” (J Med Chem, 2020).

Legend:
Assay type in all cases: cell-based
[1] = biological target: T1, WD repeat-containing protein 5 (Homo sapiens, UniProt P61964); assay: Inhibition of WDR5 in human MV4-11 cells assessed as increase in p53 protein expression after 24 to 48 hrs by Western blot analysis
[2] = biological target: T1, WD repeat-containing protein 5; assay: Inhibition of WDR5 binding to RPS24 in human MV4-11 cells assessed as reduction in RPL35 mRNA expression at 300 nM after 3 days by qRT-PCR analysis relative to control
[3] = biological target: T1, WD repeat-containing protein 5; assay: Binding affinity to WDR5 in human MV4-11 cells assessed as WDR5-RBBP5 protein interaction at 1 uM after 4 hrs by co-immunoprecipitation assay
[4] = biological target: T1, WD repeat-containing protein 5; assay: Inhibition of WDR5 in human MV4-11 cells assessed as increase in p21 protein expression after 24 to 48 hrs by Western blot analysis
[5] = biological target: T1, WD repeat-containing protein 5; assay: Binding affinity to WDR5 WIN site in human MV4-11 cells assessed as reduction in MYC recruitment to RPL35 binding site at 600 nM after 4 hrs by chromatin immunoprecipitation assay
[6] = biological target: T1, WD repeat-containing protein 5; assay: Binding affinity to WDR5 WIN site in human MV4-11 cells assessed as reduction in MYC recruitment to SNHG15 E-box binding site at 600 nM after 4 hrs by chromatin immunoprecipitation assay
[7] = biological target: T1, WD repeat-containing protein 5; assay: Binding affinity to WDR5 WIN site in human MV4-11 cells assessed as reduction in MYC recruitment RPS24 binding site at 600 nM after 4 hrs by chromatin immunoprecipitation assay
[8] = biological target: T1, WD repeat-containing protein 5; assay: Inhibition of WDR5 binding to RPS24 in human MV4-11 cells assessed as reduction in RPS24 mRNA expression at 300 nM after 3 days by qRT-PCR analysis relative to control

`COc1cc(CN2CCc3c(cc(Cn4ccn(C)c4=N)cc3-c3ccc(F)cc3C)C2=O)cc(OC)c1` was tested, and the inhibition [1] was “Dose-dependent effect”, the fold change (FC) [2] was 2 and the Activity [3] was “inactive”. For the same compound, the inhibition [4] was “Dose-dependent effect”, the Activity [5] was “Active” and the Activity [6] was “Active”. For the same compound, the Activity [7] was “Active” and the fold change (FC) [8] was 2.

Calls of active or inactive are those of the source. The rule behind the calls is not given here.
